Assay results from ChEMBL document CHEMBL5696443 (Clin Cancer Res, 2016).

Chains of the proteins cited; added tags and fusions are not shown.
UniProt Q13882, whole entry: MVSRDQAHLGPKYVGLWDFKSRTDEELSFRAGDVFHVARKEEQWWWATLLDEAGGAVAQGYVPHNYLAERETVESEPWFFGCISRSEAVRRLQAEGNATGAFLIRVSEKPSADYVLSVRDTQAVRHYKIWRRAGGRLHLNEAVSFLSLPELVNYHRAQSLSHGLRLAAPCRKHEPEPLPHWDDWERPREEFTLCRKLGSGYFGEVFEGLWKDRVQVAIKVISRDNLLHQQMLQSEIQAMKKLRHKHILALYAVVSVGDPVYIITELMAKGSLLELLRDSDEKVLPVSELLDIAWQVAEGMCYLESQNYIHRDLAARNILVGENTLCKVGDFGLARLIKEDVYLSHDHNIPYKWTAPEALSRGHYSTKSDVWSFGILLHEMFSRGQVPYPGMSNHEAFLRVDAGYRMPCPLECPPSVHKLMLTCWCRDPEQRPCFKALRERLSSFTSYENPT

Molecular target: Protein-tyrosine kinase 6 (Homo sapiens, UniProt Q13882)
Assay: Inhibition of human PTK6 using poly (Glu, Tyr)4:1 as substrate in presence of [gamma33P]-ATP by HotSpot assay

SMILES: COc1cc(N2CCC(N3CCN(C)CC3)CC2)ccc1Nc1ncc(Cl)c(Nc2ccccc2P(C)(C)=O)n1 [BRIGATINIB]
- IC50: 4.1 nM
